Here are results for one substance from US20250205350A1, “Antibody-Drug Conjugates and Uses Thereof” (Vivasor, Inc., priority 2022, published 2025).

The test system of this assay is NCI-N87 xenograft. Kind of assay: In vivo efficacy in NCI-N87 xenograft in Nu/Nu nude mice. Here is the method:
Her2 antibody Herceptin (Trastuzumab) was purchased from Myonex LLC (Horsham, PA, USA).
Female Nu/Nu mice, 6 weeks of age, were purchased from Charles River Laboratories (Wilmington, MA). Upon receipt, groups of 5 mice were housed per cages in a controlled environment vivarium and allowed to acclimate for 72 hours prior to experimentation. Rodent chow and water were provided ad libitum. Animal health status was determined during the acclimation period. Each cage was identified by group number and study number, and mice were individually identified using ear tags. The study was conducted under approved IACUC protocols and were performed in the vivarium at Sorrento Therapeutics Inc (4955 Directors Places, San Diego, CA), which was managed by Explora BioLabs (San Diego, CA).
Animals were observed twice weekly for general clinical conditions including viability, mortality, mobility, posture, body weight (BW) and other signs of distress. If animals became moribund or lost >15% of their BW due to toxicity, or the combination of toxicity and disease, they were euthanized and recorded.
Human gastric cancer cell line NCl-N87 cells were cultured and expanded in RPMI 1640 medium (catalog #10^−041-CV, Corning, Corning, NY) supplemented with 10% FBS (catalog #FB-02, Omega Scientific, Tarzana, CA) at 37° C. in a 5% CO2 humidified environment for a period of 2-3 weeks before harvesting for implantation. Cell viability determined by Trypan blue dye exclusion assay on a Countess II Automated Cell Counter (catalog #AMQAX1000, Invitrogen, Carlsbad, CA) and was >90% before implantation. […]
Tumor volume measurement was started 11 days after tumor cell inoculation and performed twice a week after initial dosing. The longest longitudinal diameter as length and the widest transverse diameter as width were measured by using a digital caliper (catalog #62379-531, VWR, Radnor, PA). Tumor volume (TV) were then calculated by the formula: TV=[length×(width)^2]/2 and were analyzed in Excel (Microsoft Office, Redmond, WA.). […]

As for Trastuzumab [Her2 Ab (Trastuzumab)], for the setting “3 mg/kg, i.v., once, Day 28”, the “TGI % (Day 28)” value is 46.5% and the “TR % (Day 28)” value was 0.0%. In addition, where the note is “after 1-3 weeks of treatment”, the “growth of NCl-N87 tumors compared to vehicle PBS (in words)” value is “significantly and quickly inhibited the growth”.
